# Binding of CDR-mutated scFvs to a peptide of the spike HR2 region

Binding partner: SARS-CoV-2 spike HR2 peptide, sequence PDVDLGDISGINAS.

Ab-95 is the parent antibody, in scFv form: VH, then the linker GGGGSGGGGSGGGGS, then VL. The heavy chain is unchanged in all variants.
VH: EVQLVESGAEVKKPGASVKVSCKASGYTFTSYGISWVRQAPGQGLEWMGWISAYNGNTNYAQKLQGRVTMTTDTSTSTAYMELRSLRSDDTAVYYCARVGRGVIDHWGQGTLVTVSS
VL: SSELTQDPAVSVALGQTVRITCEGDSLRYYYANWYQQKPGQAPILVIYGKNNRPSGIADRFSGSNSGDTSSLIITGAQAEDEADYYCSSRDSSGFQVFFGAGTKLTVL

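The starting antibody came from a phage panning campaign against this peptide. The library (AAYL52) carries one to three amino acid substitutions per variant, with no insertions or deletions. In AlphaSeq, yeast of one mating type display the scFv and yeast of the other type display the target. The frequency of each diploid, read from paired DNA barcodes, reflects how well the two displayed proteins bind. A regression on co-assayed BCL2-family reference pairs converts the normalised counts of each replicate to an apparent Kd. There are three technical replicates.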

Variants are written as CDR1, CDR2 and CDR3 of the light chain (limits as in the source). Parent: EGDSLRYYYAN, GKNNRPS, SSRDSSGFQVF.
Affinities are written as log10 Kd with Kd in nM; a lower number is a better binder.
Replicates are averaged; those with no signal do not enter the mean.
An entry "n.d." has no value in the source: the pair was not observed among the diploids in that replicate. This suggests poor binding but is not conclusive.
For reference, the parent read 2.31 as the reference entry and 2.25 as a member of this library.
Nonspecific signal, from three strains lacking the peptide, appeared in 28% of pairings of library AAYL52, centred on 3.91 (5% of these signals below 2.90); values are not corrected for it. For each scFv, signals with the empty controls are counted beside the result, with their mean in brackets.

| # | CDR-L1 | CDR-L2 | CDR-L3 | log10 Kd, replicates | mean log10 Kd (nM) | signal with controls |
|---|---|---|---|---|---|---|
| 1 | EGDSLRYYYAN | GKNYRPS | SSRDVSGFNVF | 2.37 / 2.77 / 2.25 | 2.46 | 3/9 (3.89) |
| 2 | EGDALRYYYAN | RKNNRPS | SSRDNSGFQVF | n.d. / 5.41 / n.d. | 5.41 | 3/9 (3.53) |
| 3 | EGDSMRYNYAN | GKNNRPS | SSRDSEGFQVF | 2.29 / 2.08 / 2.16 | 2.18 | 2/9 (3.77) |
| 4 | EGDSLRYYYAN | GKNNRPS | SSNDSIFFQVF | 4.12 / 5.41 / n.d. | 4.76 | 4/9 (4.34) |
| 5 | EGDSLEYHYAN | GKNNRPS | SSRDSWGFQVF | 2.36 / 1.99 / 1.84 | 2.06 | 5/9 (3.47) |
| 6 | EGDSIRYYYAN | GKNNRLQ | SSRDSSGFQVF | 1.63 / 1.57 / 1.69 | 1.63 | 3/9 (4.04) |
| 7 | EGDSLRYYYAN | AKNNRPS | SPRDSSGFQFF | n.d. / 3.64 / n.d. | 3.64 | 2/9 (3.83) |
| 8 | EGDSLRYYYAN | GKNHRPT | SSRDSSGFQVF | 2.80 / 2.64 / 3.06 | 2.83 | 3/9 (3.90) |
| 9 | EGDSHRYYYAN | GKNNRPS | SSRDSSGFGVF | 3.82 / 3.60 / n.d. | 3.71 | 3/9 (4.22) |
| 10 | EGDSIRYYYAN | GKNNRPS | SNRDYSGFQVF | 4.14 / 5.66 / n.d. | 4.90 | 5/9 (4.03) |
| 11 | EGDSLRYYYAN | GKNNRPS | SSSQSSGFQYF | 3.68 / n.d. / 3.62 | 3.65 | 2/9 (3.78) |
| 12 | DGTSLRQYYAN | GKNNRPS | SSRDSSGFQVF | 2.79 / 2.17 / 2.91 | 2.62 | 2/9 (3.87) |
| 13 | EGDSLRYYYAN | GKNNRPA | VSRDSSGFQVF | 3.56 / 3.12 / 3.04 | 3.24 | 2/9 (3.52) |
| 14 | EGDSLRYYYAN | GKNNMPS | SSRDSSGFQGF | n.d. / n.d. / n.d. | n.d. | 2/9 (4.22) |
| 15 | EGDSLYYYYAN | GKNNPPS | SSRDSSGGQVF | 3.56 / 4.90 / 4.44 | 4.30 | 3/9 (3.61) |
| 16 | QGDSLCYYYAN | GKNNRPS | SSRMSSGFQVF | 4.84 / n.d. / 4.01 | 4.43 | 4/9 (4.26) |
| 17 | EGDSLIYYYAN | GKNYRES | SSRDSSGFQVF | 3.47 / 3.58 / 4.15 | 3.73 | 4/9 (4.11) |
| 18 | EGDSLRYYYAN | GKNHRPS | SSRDRWGFQVF | 3.86 / 3.80 / 2.66 | 3.44 | 3/9 (3.78) |
| 19 | EGDSLRYYEEN | GKNNRPS | SSRDSVGFQVF | n.d. / n.d. / n.d. | n.d. | 1/9 (4.36) |
| 20 | EGDSLRYYYMN | GKNNRPW | SSRDSSHFQVF | n.d. / n.d. / n.d. | n.d. | 1/9 (2.65) |
| 21 | EGPSLRYYYAN | GKNNRGS | SSRDSSGFQVP | 3.12 / 2.65 / 2.57 | 2.78 | 2/9 (4.06) |
| 22 | AGDELRYYYAN | GKNNRPS | SDRDSSGFQVF | 3.05 / 3.36 / 4.40 | 3.61 | 5/9 (4.30) |
| 23 | EGDSLRYYYAN | LKNNRNS | SSRDSSGFQVN | n.d. / n.d. / n.d. | n.d. | 5/9 (3.74) |
| 24 | ETDSLRYYDAN | GENNRPS | SSRDSSGFQVF | 3.17 / 4.04 / 3.81 | 3.68 | 4/9 (3.72) |
| 25 | EGDSPRYYYFN | GKGNRPS | SSRDSSGFQVF | 2.52 / 2.22 / 2.43 | 2.39 | 4/9 (3.96) |
| 26 | EGDSLRYYYAN | RKRNRPS | SSRDSVGFQVF | n.d. / n.d. / n.d. | n.d. | 3/9 (4.30) |
| 27 | EGDSIIYYYAN | GLNNRPS | SSRDSSGFQVF | 3.24 / 2.83 / n.d. | 3.03 | 1/9 (4.83) |
| 28 | EGDSLRYYYAN | GKNNRPS | SEVDSSGFQRF | n.d. / 4.97 / n.d. | 4.97 | 1/9 (2.55) |
| 29 | EGDSLRCDYAN | GKNNRPS | SSRDSLGFQVF | 3.35 / 3.36 / n.d. | 3.36 | 2/9 (3.63) |
| 30 | EGDSLRYYYAN | GKNNRPS | SSRDSQAPQVF | n.d. / n.d. / n.d. | n.d. | 2/9 (3.49) |
| 31 | DGLSLRYYYAN | GKNNRPS | SSRDSSGFQTF | 2.90 / 2.79 / 3.79 | 3.16 | 2/9 (4.51) |
| 32 | NGDSLRYYYAN | GKNNRPS | SSRDSWGQQVF | 2.87 / 4.61 / 2.55 | 3.34 | 3/9 (3.96) |
| 33 | EGDSLRYYYAN | GFNNRPS | SSTDSSGFMVF | 4.01 / 3.04 / 3.10 | 3.38 | 4/9 (3.87) |
| 34 | EGPSLRYYYAN | GKNNRPR | SSRDSSGFQVM | 3.74 / 2.73 / n.d. | 3.24 | 4/9 (3.79) |

Data: MIT Lincoln Laboratory AlphaSeq set, Engelhart et al. 2022, doi:10.1038/s41597-022-01779-4, as distributed in FLAb.